{"source": "PubChem BioAssay AID2810", "about": "(NMMLSC, 2010)", "note": "The entries are a selection whose mix differs from that of the whole data set. Activity calls are given as the source filed them.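 How the source made its calls: active means at either tested dose, response and 90th-percentile vesicle-stain brightness of CD8 cells under set limits and under 9% cells vesicle-bound; inactive means the rest.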"}
{"experiment": "modulators of CD8 T cell-vesicle binding, confirmation, cherry-picked primary hits, two concentrations (AID 2810);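 further: ratio of mean FL2 vesicle stain of CD8+ cells to that row's control; lower values mean blocking of vesicle binding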", "details": "2C CD8+ T cell-vesicle binding, flow cytometry; at 15.4 µM; active compounds read low"}
{"compound": "C[N+]1=C2C=CC=CC=C2SC12C([N+](=O)[O-])=CC([N+](=O)[O-])=C[C-]2[N+](=O)[O-]", "note": "(stereo unspecified)", "percent response (vesicle binding)": "inactive: 253%"}
